The target in the test is T1, Mucosa-associated lymphoid tissue lymphoma translocation protein 1 (Homo sapiens) (UniProt Q9UDY8).
T1 sequence (whole entry): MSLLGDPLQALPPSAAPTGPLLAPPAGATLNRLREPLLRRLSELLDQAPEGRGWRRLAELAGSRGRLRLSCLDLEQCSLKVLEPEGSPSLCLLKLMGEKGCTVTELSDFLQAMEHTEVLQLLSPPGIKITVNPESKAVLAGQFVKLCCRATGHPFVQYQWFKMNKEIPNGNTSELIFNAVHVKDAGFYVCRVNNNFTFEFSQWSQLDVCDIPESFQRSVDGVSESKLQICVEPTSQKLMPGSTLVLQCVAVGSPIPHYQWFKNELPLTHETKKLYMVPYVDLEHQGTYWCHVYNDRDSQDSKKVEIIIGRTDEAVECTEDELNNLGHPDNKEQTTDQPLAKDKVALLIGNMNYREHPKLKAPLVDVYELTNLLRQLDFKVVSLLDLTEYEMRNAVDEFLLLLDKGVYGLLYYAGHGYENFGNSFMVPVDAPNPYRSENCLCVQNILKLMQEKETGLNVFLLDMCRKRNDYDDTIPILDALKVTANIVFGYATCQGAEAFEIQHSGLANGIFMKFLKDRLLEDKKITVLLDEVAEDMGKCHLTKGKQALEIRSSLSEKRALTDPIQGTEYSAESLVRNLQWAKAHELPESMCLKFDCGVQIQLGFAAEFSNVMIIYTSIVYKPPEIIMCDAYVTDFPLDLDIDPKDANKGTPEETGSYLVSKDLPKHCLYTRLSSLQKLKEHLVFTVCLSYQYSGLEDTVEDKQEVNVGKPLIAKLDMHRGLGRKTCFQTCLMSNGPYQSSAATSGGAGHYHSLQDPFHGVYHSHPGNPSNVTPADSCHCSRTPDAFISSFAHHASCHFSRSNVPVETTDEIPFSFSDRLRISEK
Put plainly: Inhibition of MALT1 in PMA/ionomycin-stimulated human Jurkat T cells assessed as reduction in RelB cleavage at 2 uM pretreated for 4 hrs followed by 1 hr incubation with protease inhibitor MG132 and subsequent PMA/ionomycin-stimulation measured after 1 hr by Western blot analysis. The class given is cell-based. In outline:
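Jurkat T cells in RPMI 1640 with 10% FBS, seeded at 9×10^5 cells/well, treated with compound or DMSO for 4 h, then 1 h with MG132 (10 μM), then stimulated with PMA. RelB cleavage as the read-out of MALT1 activity, detected by Western blot.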
On the technique in general: Immunoblotting shows a protein as a band on a membrane.

SMILES strings stand for the structures. Calls of active or inactive are those of the source. No cut-off for these calls is given here.

Turning to `O=C(CCl)Nc1ccc(-n2nc(OCCO)nc2-c2ccc(Cl)c(Cl)c2)cc1`, the inhibition entry is “Active”.

Source of the values: ChEMBL document CHEMBL4118168, “Synthesis and structure-activity relationship studies of MI-2 analogues as MALT1 inhibitors” (Bioorg Med Chem, 2018).
